In ChEMBL document CHEMBL3259543, “Design and synthesis of highly potent HIV-1 protease inhibitors with novel isosorbide-derived P2 ligands” (Bioorg Med Chem Lett, 2014):

Target: Protease (Human immunodeficiency virus 1, UniProt Q9YQ12)
Assay: Inhibition of purified HIV-1 protease using [Arg-Glu(EDANS)-Ser-Gin-Asn-Tyr-Ile-Val-Gin-Lys(dabcyl)-Arg) as fluorogenic substrate by fluorescence assay
Procedure, shortened: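 Wild-type HIV-1 protease, cloned, expressed in Escherichia coli and purified. Inhibitors dissolved in DMSO and diluted. Incubation at 30 °C in 0.1 M sodium acetate, 1 M NaCl, 1 mM DTT, 1 mM EDTA, 3% DMSO, pH 5.0, with the EDANS/dabcyl fluorogenic peptide substrate. Cleavage read by fluorescence in a microplate reader.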

With CC(C)(C)NC(=O)[C@@H]1CN(Cc2cccnc2)CCN1C[C@@H](O)C[C@@H](Cc1ccccc1)C(=O)N[C@H]1c2ccccc2C[C@H]1O [INDINAVIR] the IC50 was < 10 nM.
